Data published in the supplement of paper PMC8183993.
The lowest values were mostly taken out for another list; the other results follow.

System: U2OS
Experiment: mean cytoplasmic OPP incorporation (global translation) relative to DMSO (% of DMSO); higher = more protein synthesis
Details: 10 µM; 24 h
Method: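 Primary image-based screen in U2OS cells: compounds at 10 uM for 24 h, then a 1 h o-propargyl-puromycin (OPP) pulse, click labelling, and high-throughput microscopy. Mean cytoplasmic OPP intensity and nuclei count were normalised to DMSO wells within each plate (DMSO = 100) and averaged over triplicate plates.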

Row | Structure (SMILES) | mean cytoplasmic OPP incorporation
1 | COc1cc(Br)c(C[N+]2(CCOCCC3CCC4CC3C4(C)C)CCOCC2)cc1OC (stereo unspecified) [Pinaverium bromide] | 109
